Molecular target: the molecule itself
Test: thioflavin T

B1: Full-length (FL) P301L tau (2N4R; […]) (natural protein)
chain: not shown
- binding result: binds

Source: paper doi:10.1101/330266 (bioRxiv, 2019)
